From BindingDB's records for doi:10.1074/jbc.M110.206193 (Takeda Pharmaceutical, 2011) come the findings set out here.

Amino acid sequences for entries named in this document (tags omitted).
UniProt P04626, whole entry: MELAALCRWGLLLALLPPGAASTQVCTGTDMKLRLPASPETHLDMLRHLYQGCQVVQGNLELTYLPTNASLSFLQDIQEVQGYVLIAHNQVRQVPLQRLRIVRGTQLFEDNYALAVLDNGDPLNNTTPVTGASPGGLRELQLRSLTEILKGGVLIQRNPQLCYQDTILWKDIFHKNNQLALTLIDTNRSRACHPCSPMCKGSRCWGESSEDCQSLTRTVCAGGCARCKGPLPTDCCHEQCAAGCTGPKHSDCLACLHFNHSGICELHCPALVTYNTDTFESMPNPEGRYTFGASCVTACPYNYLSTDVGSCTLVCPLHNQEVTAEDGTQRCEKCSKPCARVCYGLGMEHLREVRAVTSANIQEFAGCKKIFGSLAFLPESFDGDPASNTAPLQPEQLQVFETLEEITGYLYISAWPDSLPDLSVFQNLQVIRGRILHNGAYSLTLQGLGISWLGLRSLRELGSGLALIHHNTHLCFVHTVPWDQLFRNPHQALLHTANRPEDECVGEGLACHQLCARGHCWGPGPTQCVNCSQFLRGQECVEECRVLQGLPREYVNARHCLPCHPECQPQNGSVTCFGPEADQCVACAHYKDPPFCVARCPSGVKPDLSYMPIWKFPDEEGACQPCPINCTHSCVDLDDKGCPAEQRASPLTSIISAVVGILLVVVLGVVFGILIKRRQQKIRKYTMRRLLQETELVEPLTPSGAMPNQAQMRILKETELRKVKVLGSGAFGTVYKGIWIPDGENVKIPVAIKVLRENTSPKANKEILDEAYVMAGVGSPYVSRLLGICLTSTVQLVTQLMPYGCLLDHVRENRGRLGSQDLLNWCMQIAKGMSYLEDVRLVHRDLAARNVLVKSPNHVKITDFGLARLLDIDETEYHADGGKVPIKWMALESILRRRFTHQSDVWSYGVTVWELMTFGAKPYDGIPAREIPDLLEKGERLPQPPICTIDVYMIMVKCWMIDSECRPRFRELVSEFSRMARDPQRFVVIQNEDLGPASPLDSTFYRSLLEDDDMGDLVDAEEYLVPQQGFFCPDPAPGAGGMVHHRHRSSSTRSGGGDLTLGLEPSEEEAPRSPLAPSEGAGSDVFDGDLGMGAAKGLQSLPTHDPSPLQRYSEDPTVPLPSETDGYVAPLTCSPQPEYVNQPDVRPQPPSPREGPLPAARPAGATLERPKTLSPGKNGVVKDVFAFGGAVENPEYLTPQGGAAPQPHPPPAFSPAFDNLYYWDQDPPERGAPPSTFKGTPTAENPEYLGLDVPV

This experiment concerns the target Receptor tyrosine-protein kinase erbB-2 (Homo sapiens, UniProt P04626). Nature of the experiment: Enzyme Assay. The settings on record: pH 7.5. The protocol: The EGFR, HER2 and HER4 kinase assay were performed using radiolabeled [gamma-32P] ATP from GE Healthcare.

Structures are written as SMILES.

`OCCOCn1ccc2ncnc(Nc3cnc(Oc4cccc(C(F)(F)F)c4)c(Cl)c3)c21` [SYR127063]: the IC50 (as a rule, the concentration that inhibits the measured activity by half) worked out at 11 nM.
